Tests used:
[1] = target: T1, KOP receptor (Homo sapiens, UniProt P41145); assay: 35S-GTPγS coupling, inhibition; assay type: biochemical
[2] = target: T1, KOP receptor; assay: ERK 1/2 activation, inhibition; assay type: cell-based

Sequences of proteins named here, by UniProt entry; tags and fusion partners are left off. A change or cut given only in a name is not applied to a line headed by its entry.
UniProt P41145: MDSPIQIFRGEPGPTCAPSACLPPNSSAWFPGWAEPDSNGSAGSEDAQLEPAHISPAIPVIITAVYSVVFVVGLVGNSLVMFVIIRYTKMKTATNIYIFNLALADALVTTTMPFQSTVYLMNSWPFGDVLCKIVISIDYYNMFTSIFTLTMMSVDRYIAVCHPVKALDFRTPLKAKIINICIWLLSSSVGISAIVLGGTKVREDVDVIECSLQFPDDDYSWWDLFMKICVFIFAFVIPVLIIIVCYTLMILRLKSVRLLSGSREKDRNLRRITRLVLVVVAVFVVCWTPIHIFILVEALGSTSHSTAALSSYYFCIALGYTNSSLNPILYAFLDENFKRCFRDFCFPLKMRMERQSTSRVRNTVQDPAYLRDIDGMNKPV

Oc1ccc2c3c1O[C@H]1c4[nH]c5c(c4C[C@@]4(O)[C@@H](C2)N(CC2CC2)CC[C@]314)C[C@@]1(O)[C@H]2Cc3ccc(O)c4c3[C@@]1(CCN2CC1CC1)[C@H]5O4 [Nor-BNI, reference compound]
Imax (% NBNI) [1]: 101 ± 1 % NBNI
Imax (% NBNI) [2]: 100 ± 0.3 % NBNI

From patent publication US9345703B2, “Kappa opioid receptor effectors and uses thereof” (University of Kansas, priority 2011, dated 2016)
